The values that follow come from patent US10793563B2, “GCN2 inhibitors and uses thereof” (Merck Patent GmbH, priority 2018, dated 2020).

Sequences of proteins named here, by UniProt entry; tags and fusion partners are left off.
UniProt Q9P2K8, whole entry: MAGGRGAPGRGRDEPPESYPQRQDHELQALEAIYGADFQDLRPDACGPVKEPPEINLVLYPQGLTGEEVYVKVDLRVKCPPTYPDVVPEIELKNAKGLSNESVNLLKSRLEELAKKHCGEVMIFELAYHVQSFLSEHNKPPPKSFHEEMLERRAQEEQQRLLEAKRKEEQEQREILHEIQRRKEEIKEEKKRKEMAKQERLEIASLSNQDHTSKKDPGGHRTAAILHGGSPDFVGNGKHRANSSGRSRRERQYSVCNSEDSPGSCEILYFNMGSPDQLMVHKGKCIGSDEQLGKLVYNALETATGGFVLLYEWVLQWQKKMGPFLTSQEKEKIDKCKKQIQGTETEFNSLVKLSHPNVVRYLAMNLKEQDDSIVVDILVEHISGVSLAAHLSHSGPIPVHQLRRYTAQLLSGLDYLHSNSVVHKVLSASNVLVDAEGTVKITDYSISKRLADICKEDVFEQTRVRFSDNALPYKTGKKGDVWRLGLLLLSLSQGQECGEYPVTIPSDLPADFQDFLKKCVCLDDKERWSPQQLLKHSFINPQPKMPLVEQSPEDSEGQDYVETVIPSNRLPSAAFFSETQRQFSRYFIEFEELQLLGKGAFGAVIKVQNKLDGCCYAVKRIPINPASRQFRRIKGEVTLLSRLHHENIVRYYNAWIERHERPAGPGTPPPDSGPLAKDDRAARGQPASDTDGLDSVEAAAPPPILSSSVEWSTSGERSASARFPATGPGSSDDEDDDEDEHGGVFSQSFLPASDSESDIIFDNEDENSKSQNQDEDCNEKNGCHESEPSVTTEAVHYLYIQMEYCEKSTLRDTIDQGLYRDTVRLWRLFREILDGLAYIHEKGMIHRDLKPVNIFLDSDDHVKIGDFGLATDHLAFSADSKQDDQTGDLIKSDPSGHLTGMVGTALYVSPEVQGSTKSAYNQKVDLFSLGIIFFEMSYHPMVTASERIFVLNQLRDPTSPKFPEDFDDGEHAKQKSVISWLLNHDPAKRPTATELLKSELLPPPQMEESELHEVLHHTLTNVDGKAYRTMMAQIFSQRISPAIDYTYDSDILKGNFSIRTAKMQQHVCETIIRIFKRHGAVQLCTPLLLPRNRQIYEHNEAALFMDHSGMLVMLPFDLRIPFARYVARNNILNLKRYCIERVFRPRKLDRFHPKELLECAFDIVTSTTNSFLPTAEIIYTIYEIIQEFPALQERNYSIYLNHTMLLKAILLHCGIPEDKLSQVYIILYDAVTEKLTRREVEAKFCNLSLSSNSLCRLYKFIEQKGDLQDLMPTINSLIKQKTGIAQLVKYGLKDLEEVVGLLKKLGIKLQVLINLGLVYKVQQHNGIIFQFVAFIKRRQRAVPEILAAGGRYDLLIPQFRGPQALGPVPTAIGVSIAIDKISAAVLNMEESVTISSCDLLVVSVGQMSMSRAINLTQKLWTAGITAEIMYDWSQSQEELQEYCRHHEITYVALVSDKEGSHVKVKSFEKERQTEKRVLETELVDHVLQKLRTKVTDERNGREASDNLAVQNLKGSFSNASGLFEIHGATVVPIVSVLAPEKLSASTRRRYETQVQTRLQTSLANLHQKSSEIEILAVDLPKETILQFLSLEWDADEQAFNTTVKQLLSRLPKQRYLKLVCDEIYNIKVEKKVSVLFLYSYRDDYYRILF

Each structure is given as a SMILES string. Bounds are passed on as bounds.

The test addresses GCN2 kinase (Homo sapiens (Human), UniProt Q9P2K8). Description: GCN2 Enzyme Inhibition Assay (Transcreener ADP2 fluorescence polarization). The test is classed as biochemical. The note with it: read-out: GCN2 (Ki); Ki(app); 280 μM ATP, 200 μM (RS)7 peptide, 4 nM GCN2, 25° C. In general terms: Polarisation of emitted light reports the rotation of a fluorescent probe.

Take `CC1CN(c2ccnc(-c3cnc4ccc(C(F)(F)F)cn34)n2)CC(c2cn[nH]c2)N1` (single isomer, unassigned): the Ki was less than 10 nM.
